Assays:
Test in all cases: EMSA
[1] = system: eIF3 (a H725P) (Saccharomyces cerevisiae); conditions: mean of 2; Met-charged tRNAi; 30 mM HEPES-KOH pH 7.4, 100 mM KOAc, 3 mM Mg(OAc)2, 2 mM DTT, 1 mM GDPNP, 26 C, 2 h; native 4% THEM gel
[2] = system: eIF3 (a R731I) (Saccharomyces cerevisiae); conditions: mean of 2; Met-charged tRNAi; 30 mM HEPES-KOH pH 7.4, 100 mM KOAc, 3 mM Mg(OAc)2, 2 mM DTT, 1 mM GDPNP, 26 C, 2 h; native 4% THEM gel
[3] = system: eIF3 (b prt1-1) (Saccharomyces cerevisiae); conditions: mean of 2, Met-charged tRNAi, 30 mM HEPES-KOH pH 7.4, 100 mM KOAc, 3 mM Mg(OAc)2, 2 mM DTT, 1 mM GDPNP, 26 C, 2 h, native 4% THEM gel
[4] = system: eIF3 (b rnp1) (Saccharomyces cerevisiae); conditions: Met-charged tRNAi, 30 mM HEPES-KOH pH 7.4, 100 mM KOAc, 3 mM Mg(OAc)2, 2 mM DTT, 1 mM GDPNP, 26 C, 2 h, native 4% THEM gel
[5] = system: eIF3 (c Box12-SPW) (Saccharomyces cerevisiae); conditions: mean of 2; Met-charged tRNAi; uncapped mRNA; 30 mM HEPES-KOH pH 7.4, 100 mM KOAc, 3 mM Mg(OAc)2, 2 mM DTT, 1 mM GDPNP, 26 C, 2 h; native 4% THEM gel
[6] = system: yeast 43S PIC: 40S+eIF1+eIF1A+eIF2 (Met-tRNAi TC); for mRNA recruitment also eIF5, eIF4A, eIF4B, eIF4E-eIF4G (Saccharomyces cerevisiae); conditions: Met-charged; 30 mM HEPES-KOH pH 7.4, 100 mM KOAc, 3 mM Mg(OAc)2, 2 mM DTT, 1 mM GDPNP, 26 C, 2 h; native 4% THEM gel

43S PIC (40S rRNA + Met-tRNAi) gave a Kd [1] of 79 nM, a Kd [2] of 113 nM and a Kd [3] of 83 nM. The Kd ([4]; mean of 3) was 110 nM.
“48S PIC (40S rRNA + Met-tRNAi + AUG model mRNA)” gave a Kd ([3]; uncapped mRNA) of 104 nM, a Kd ([4]; mean of 2, uncapped mRNA) of 158 nM and a Kd [5] of 69 nM.
initiator tRNAiMet showed a Kd [6] of 104 nM.
